Only a part is listed here, and it is no random draw. Inconclusive results are not listed. The source made the active and inactive calls. Calls come from the whole dose curve; as a rule, active = well fitted activation curve with a large enough effect; inconclusive = small, poorly fitted or top-dose-only effect; inactive = no such curve, though single readings can be large or run the other way.
experiment: qHTS for Suppressors of FUS Proteinopathy: Primary screen using FUS-linked yeast assay;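 note: plate controls were DMSO vehicle for no effect and reference control for full effect; nearly all actives have a fitted effect of over 55% in size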; settings: S. cerevisiae FUS-expressing, OD600, 24 h; at 76.6 µM (top of the series)
Text: Several widespread neurodegenerative diseases, including Alzheimer disease, Huntington disease, Frontotemporal Lobar Degeneration (FTLD) and Amyotrophic Lateral Sclerosis (ALS), share a common pathological feature, namely accumulation of specific protein aggregates in diseased tissue. These diseases which is associated with protein misfolding (proteinopathies) have become increasingly problematic as the population ages and life expectancies are extended. Most proteinopathies are currently incurable, a situation confounded by the fact that the basis of neurodegeneration is generally poorly understood. There exists urgent and significant need to find therapeutics that can inhibit the toxicity associated with protein aggregation. […]
For this project, a yeast model of the FUS proteinopathies (a spectrum of neurodegenerative diseases that include ALS and a subtype of FTLD) was generated and employed. […] This model was validated to be suitable for quantitative HTS (qHTS) use for finding genetic or chemical factors that restore growth. […]
Four hundred fifty microliter of cultured yeast (in 20mL rich medium) provided by Dr. Shewmaker lab was incubated at 30C at 99% humidity for 3hr. […] Absorbance at 600nm was then read using the PerkinElmer ViewLux plate reader.

| SMILES | growth rescue (activation) |
| --- | --- |
| CCC(=O)N(c1ccccc1)C1(COC)CCN(CCc2cccs2)CC1 | inactive: -39.9% |
| CCC(=O)N(c1ccccc1)C1(COC)CCN(CCn2nnn(CC)c2=O)CC1 | inactive: -25.4% |

Source: PubChem BioAssay AID1347120 (National Center for Advancing Translational Sciences (NCATS), 2019)
